System: Rats
Assay: Conditioned avoidance behavior in rats
Assay type: in vivo, rat
Source text: Conditioned Avoidance Behavior in Rats:
In a conditioned avoidance test, animals learn to respond during a conditioned stimulus in order to avoid mild shock presentation. A response during the conditioned stimulus is termed an avoidance response, a response during shock is termed an escape response; a response failure is when the animal fails to respond during either the conditioned stimulus or the shock presentation and is indicative of motor impairment. […] Antipsychotic drugs decrease the percentage of avoidance responses without interfering with the ability of the animal to respond since the animals do emit escape responses. The percentage of response failures is considered a measure of motor impairment.
Rats were required to press a response lever in an experimental chamber in order to avoid or escape foot-shock. Each experimental session consisted of 50 trials. During each trial, the chamber was illuminated and a tone presented for a maximum of 10 sec. A response during the tone immediately terminated the tone and the houselight, ending the trial. In the absence of a response during the tone alone, tone+foot-shock (2.0 mA) was presented for a maximum of 10 sec. A response during shock presentation immediately terminated the shock, the tone and the houselights ending the trial.
If the effects are simply additive the results will be additive. If the effects of are synergistic, then the dose of second component required to produce full efficacy will be decreased.

[1] = first component dose 0.01 in combination with Xanomeline dose 10
[2] = first component dose 0.03 in combination with Xanomeline dose 10

For `Cc1cc2c(s1)Nc1ccccc1N=C2N1CCN(C)CC1` [Olanzapine, 2-methyl-4-(4-methyl-1-piperazinyl)-10H-thieno[2,3-b][1,5]benzodiazepine], the “% Response Failures ± SEM” value [1] was 1 ± 1%, the “% Response Failures ± SEM” value [2] was 0 ± 0% and the “% Response Failures ± SEM” value (first component dose 0.1 in combination with Xanomeline dose 10) was 0 ± 0%. The “% Response Failures ± SEM” value (first component dose 0.3 in combination with Xanomeline dose 10) was 17 ± 10%, the “% Response Failures ± SEM” value (first component dose 1.0 in combination with Xanomeline dose 10) was 6 ± 5% and the “% Response Failures ± SEM” value (given alone, dose 1) was 0 ± 0%. For the same compound, the “% Response Failures ± SEM” value (given alone, dose 3) was 1 ± 1% and the “% Response Failures ± SEM” value (given alone, dose 10) was 5 ± 3%.
In the case of `Cc1nc2n(c(=O)c1CCN1CCC(c3noc4cc(F)ccc34)CC1)CCCC2` [Risperidone, 3-[2-[4-(6-fluoro-1,2-benzisoxazol-3-yl)piperidino]ethyl]-2-methyl-6,7,8,9-tetrahydro-4H-pyrido[1,2-a]pyrimidin-4-one], the “% Response Failures ± SEM” value (first component dose 0.001 in combination with Xanomeline dose 10) is reported as 0 ± 0%, the “% Response Failures ± SEM” value (first component dose 0.003 in combination with Xanomeline dose 10) is reported as 2 ± 1% and the “% Response Failures ± SEM” value [1] is reported as 0 ± 0%. For the same compound, the “% Response Failures ± SEM” value [2] was 7 ± 4%, the “% Response Failures ± SEM” value (given alone, dose 0.03 (dose unit not given), measure of motor impairment) was 0 ± 0% and the “% Response Failures ± SEM” value (given alone, dose 0.1) was 0 ± 0%. The “% Response Failures ± SEM” value (given alone, dose 0.3) was 2 ± 2% and the “% Response Failures ± SEM” value (given alone, dose 1) was 38 ± 9%.

Reference: US20040023951A1, “Combination therapy for treatment of psychoses” (priority 2002, published 2004)
